# AlphaSeq binding of Ab-14 heavy chain variants to a spike HR2 peptide

The target is the same throughout: PDVDLGDISGINAS, from the HR2 region of SARS-CoV-2 spike.

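Phage display of a naive human antibody library on the peptide gave the parent. The variants were designed computationally from a first round of random CDR variants and then made and measured. Their group label is 14H_En_Gen (En: ensemble of fine-tuned language models; Gen: genetic algorithm). The scFvs were displayed on barcoded MATa yeast, the peptide on MATalpha yeast. Pairs that bind mate more often; barcode pairs of the diploids are counted by sequencing. Each replicate has its own calibration line, from reference interactions of the BCL2 family. The assay was run in six technical replicates.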

Parent: Ab-14, a human scFv built as VH, a (GGGGS)3 linker, VL. Only the CDRs of the heavy chain vary.
VH: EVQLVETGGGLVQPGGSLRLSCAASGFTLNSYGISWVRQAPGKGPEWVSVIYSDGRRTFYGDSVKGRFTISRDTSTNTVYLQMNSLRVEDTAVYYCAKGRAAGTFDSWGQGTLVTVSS
VL: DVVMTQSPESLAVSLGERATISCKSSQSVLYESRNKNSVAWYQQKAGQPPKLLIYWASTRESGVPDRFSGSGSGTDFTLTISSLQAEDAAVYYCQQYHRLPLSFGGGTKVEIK

Each variant's VH is given in full.
The read-out is the apparent dissociation constant on a log10 scale (nM): the lower, the stronger.
An entry "n.d." has no value in the source: the pair was not observed among the diploids in that replicate. This suggests poor binding but is not conclusive.
Background: pairings of all heavy chain designs with three empty control strains gave a value in 1% of cases (median 2.08, 5th percentile 0.84). Values in that range, when seen in few replicates, are hard to tell from nonspecific mating. For each scFv, signals with the empty controls are counted beside the result, with their mean in brackets.

VH,"log10 Kd, replicates",control signals
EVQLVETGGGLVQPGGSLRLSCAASGFDLDEYGISWVRQAPGKGPEWVSVIYADGMRTAYADNVKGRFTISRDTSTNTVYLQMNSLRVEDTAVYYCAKGNVAGTFDQWGQGTLVTVSS,-1.10 / -0.67 / -0.75 / -0.84 / -0.81 / -0.68,0 of 18
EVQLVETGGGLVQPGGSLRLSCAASGFDLNEYGISWVRQAPGKGPEWVSVIYADGVRSAYADSVKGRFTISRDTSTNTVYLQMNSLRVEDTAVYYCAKGQNAGTFDVWGQGTLVTVSS,-0.48 / -0.62 / -0.39 / -0.68 / -0.40 / -0.53,0 of 18
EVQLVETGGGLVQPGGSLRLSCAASGFDLNEYGISWVRQAPGKGPEWVSVIYADGMRTAYADSVKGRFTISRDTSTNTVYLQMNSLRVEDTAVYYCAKGNVAGTFNLWGQGTLVTVSS,-0.77 / -0.66 / -0.85 / -0.70 / -0.95 / -0.64,0 of 18
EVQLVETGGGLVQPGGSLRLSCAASGFDLNEYGISWVRQAPGKGPEWVSVIYADGMRTVYADDVKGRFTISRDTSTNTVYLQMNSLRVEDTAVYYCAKGNQAGTFDVWGQGTLVTVSS,2.39 / 1.32 / n.d. / n.d. / n.d. / n.d.,0 of 18
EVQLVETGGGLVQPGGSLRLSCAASGFDLNEYGISWVRQAPGKGPEWVSVIYADGQRTAYADDVKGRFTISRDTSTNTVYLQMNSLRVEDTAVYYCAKGNVAGTFDIWGQGTLVTVSS,-0.68 / -0.60 / -0.30 / -1.07 / -0.94 / -0.89,0 of 18
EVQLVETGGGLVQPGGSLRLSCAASGFDLDEYGISWVRQAPGKGPEWVSVIYADGRRTYYADSVKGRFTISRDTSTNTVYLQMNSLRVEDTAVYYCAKGNVAGTFDVWGQGTLVTVSS,-0.45 / -0.79 / -0.72 / -0.60 / -0.63 / -0.47,0 of 18
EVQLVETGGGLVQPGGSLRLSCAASGFDLNEYGISWVRQAPGKGPEWVSVIYADGVRTAYADSVKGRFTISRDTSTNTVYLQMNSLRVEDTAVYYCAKGDNAGTFDVWGQGTLVTVSS,-0.32 / 0.12 / -0.01 / -0.46 / -0.10 / -0.38,0 of 18
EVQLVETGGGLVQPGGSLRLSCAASGFDLNEYGISWVRQAPGKGPEWVSVIYADGMRTAYANSVKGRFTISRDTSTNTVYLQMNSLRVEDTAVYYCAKGQNAGTFDVWGQGTLVTVSS,-0.70 / -0.86 / -0.82 / -0.84 / -0.66 / -0.31,0 of 18
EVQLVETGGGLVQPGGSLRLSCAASGFDLDEYGISWVRQAPGKGPEWVSVIYADGQRKAYADSVKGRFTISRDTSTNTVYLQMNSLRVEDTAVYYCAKGNQAGTFDVWGQGTLVTVSS,-0.48 / -0.21 / -0.96 / -1.15 / -0.69 / -0.85,0 of 18
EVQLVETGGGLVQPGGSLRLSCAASGFDLDEYGISWVRQAPGKGPEWVSVIYADGMRTAYADSVKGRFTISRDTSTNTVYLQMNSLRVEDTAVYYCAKGTVAGTFDVWGQGTLVTVSS,-0.58 / -0.79 / -0.84 / -1.03 / -0.89 / -0.66,0 of 18
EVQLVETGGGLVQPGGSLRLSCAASGFDLNEYGISWVRQAPGKGPEWVSVIYADGQRTAYSDSVKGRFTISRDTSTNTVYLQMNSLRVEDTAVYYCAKGQVAGTFDVWGQGTLVTVSS,-0.41 / -0.76 / -0.11 / -0.67 / -0.93 / -0.55,0 of 18
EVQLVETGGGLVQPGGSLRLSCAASGFDLNEYGISWVRQAPGKGPEWVSVIYADGKRTAYADNVKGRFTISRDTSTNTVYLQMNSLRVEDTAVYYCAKGQTAGTFDVWGQGTLVTVSS,-1.42 / -1.64 / -1.51 / -0.77 / -0.96 / -1.35,0 of 18
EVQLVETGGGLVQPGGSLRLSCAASGFDLDEYGISWVRQAPGKGPEWVSVIYADGMRTAYADSVKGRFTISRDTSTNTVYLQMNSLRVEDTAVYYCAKGEEAGTFDVWGQGTLVTVSS,0.64 / -0.57 / 0.09 / -0.39 / -0.32 / 0.48,0 of 18
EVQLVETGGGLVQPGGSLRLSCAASGFDLNEYGISWVRQAPGKGPEWVSVIYADGKRTAYADDVKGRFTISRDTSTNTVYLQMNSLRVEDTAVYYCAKGTNAGTFDVWGQGTLVTVSS,-0.26 / -0.10 / -0.50 / -0.50 / -0.33 / -0.48,0 of 18
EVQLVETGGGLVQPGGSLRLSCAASGFDLNEYGISWVRQAPGKGPEWVSVIYADGVRTYYADSVKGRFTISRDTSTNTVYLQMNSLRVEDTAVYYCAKGENAGTFDVWGQGTLVTVSS,-0.21 / -0.44 / -0.60 / -0.09 / -0.39 / -0.35,0 of 18
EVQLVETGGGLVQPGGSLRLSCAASGFDLDEYGISWVRQAPGKGPEWVSVIYADGMRTAYADNVKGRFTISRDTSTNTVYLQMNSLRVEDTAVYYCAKGNNAGTFDVWGQGTLVTVSS,1.03 / -0.16 / 1.76 / 0.53 / 0.28 / 0.59,0 of 18
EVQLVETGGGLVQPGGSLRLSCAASGFDLNEYGISWVRQAPGKGPEWVSVIYADGKRTAYADNVKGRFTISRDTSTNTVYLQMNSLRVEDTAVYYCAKGNVAGTFDMWGQGTLVTVSS,n.d. / n.d. / n.d. / n.d. / n.d. / n.d.,0 of 18
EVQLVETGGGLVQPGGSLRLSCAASGFDLNEYGISWVRQAPGKGPEWVSVIYADGSRTVYADSVKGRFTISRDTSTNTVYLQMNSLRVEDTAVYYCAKGENAGTFDMWGQGTLVTVSS,n.d. / 0.00 / 0.61 / 0.41 / 0.53 / n.d.,0 of 18
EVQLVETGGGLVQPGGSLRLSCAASGFDLNEYGISWVRQAPGKGPEWVSVIYADGRRTAYTDSVKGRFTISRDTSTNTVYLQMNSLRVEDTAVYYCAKGENAGTFDMWGQGTLVTVSS,-0.27 / -0.38 / -0.44 / -0.73 / -0.33 / -0.28,0 of 18
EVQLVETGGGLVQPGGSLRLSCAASGFDLNEYGISWVRQAPGKGPEWVSVIYADGMRTSYADSVKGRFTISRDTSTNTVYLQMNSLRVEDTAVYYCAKGETAGTFDVWGQGTLVTVSS,-0.42 / -0.54 / -0.06 / -0.04 / -0.80 / 0.35,1 of 18 (2.53)
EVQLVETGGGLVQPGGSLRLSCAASGFDLNEYGISWVRQAPGKGPEWVSVIYADGVRTSYADSVKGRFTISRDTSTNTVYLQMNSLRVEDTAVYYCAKGNEAGTFDVWGQGTLVTVSS,-0.88 / 0.13 / -1.40 / -0.22 / -0.45 / -0.54,0 of 18

Extract of 3 entries:

{"VH": "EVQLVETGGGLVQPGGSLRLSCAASGFDLNEYGISWVRQAPGKGPEWVSVIYADGKRTAYADNVKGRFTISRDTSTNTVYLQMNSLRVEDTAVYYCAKGQTAGTFDVWGQGTLVTVSS", "log10 Kd, replicates": "-1.42 / -1.64 / -1.51 / -0.77 / -0.96 / -1.35", "control signals": "0 of 18"}
{"VH": "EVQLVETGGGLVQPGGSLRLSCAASGFDLNEYGISWVRQAPGKGPEWVSVIYADGMRTAYADSVKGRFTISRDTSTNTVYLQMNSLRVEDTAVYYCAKGNVAGTFNLWGQGTLVTVSS", "log10 Kd, replicates": "-0.77 / -0.66 / -0.85 / -0.70 / -0.95 / -0.64", "control signals": "0 of 18"}
{"VH": "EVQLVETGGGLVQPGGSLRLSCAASGFDLDEYGISWVRQAPGKGPEWVSVIYADGMRTAYADSVKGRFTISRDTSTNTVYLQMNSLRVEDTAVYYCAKGTVAGTFDVWGQGTLVTVSS", "log10 Kd, replicates": "-0.58 / -0.79 / -0.84 / -1.03 / -0.89 / -0.66", "control signals": "0 of 18"}

Of ten entries with the parent sequence, four were seen in most replicates (averages 0.34 to 2.37), three in one and three in none, so single entries are noisy.
The authors averaged sequences with at least three values out of six and counted those with two or fewer as poor binders.
Values of this round are not directly comparable with the first-round values of the same sequences.

Reference: Li et al. 2023, doi:10.1038/s41467-023-39022-2. File: FLAb, binding data.